Assay results published in patent US20240239774A1, “SOLUBLE ADENYLYL CYCLASE (SAC) INHIBITORS AND USES THEREOF” (Cornell University, priority 2021, published 2024).

Amino acid sequences for entries named in this document (tags omitted). A change or cut given only in a name is not applied to a line headed by its entry.
UniProt Q96PN6: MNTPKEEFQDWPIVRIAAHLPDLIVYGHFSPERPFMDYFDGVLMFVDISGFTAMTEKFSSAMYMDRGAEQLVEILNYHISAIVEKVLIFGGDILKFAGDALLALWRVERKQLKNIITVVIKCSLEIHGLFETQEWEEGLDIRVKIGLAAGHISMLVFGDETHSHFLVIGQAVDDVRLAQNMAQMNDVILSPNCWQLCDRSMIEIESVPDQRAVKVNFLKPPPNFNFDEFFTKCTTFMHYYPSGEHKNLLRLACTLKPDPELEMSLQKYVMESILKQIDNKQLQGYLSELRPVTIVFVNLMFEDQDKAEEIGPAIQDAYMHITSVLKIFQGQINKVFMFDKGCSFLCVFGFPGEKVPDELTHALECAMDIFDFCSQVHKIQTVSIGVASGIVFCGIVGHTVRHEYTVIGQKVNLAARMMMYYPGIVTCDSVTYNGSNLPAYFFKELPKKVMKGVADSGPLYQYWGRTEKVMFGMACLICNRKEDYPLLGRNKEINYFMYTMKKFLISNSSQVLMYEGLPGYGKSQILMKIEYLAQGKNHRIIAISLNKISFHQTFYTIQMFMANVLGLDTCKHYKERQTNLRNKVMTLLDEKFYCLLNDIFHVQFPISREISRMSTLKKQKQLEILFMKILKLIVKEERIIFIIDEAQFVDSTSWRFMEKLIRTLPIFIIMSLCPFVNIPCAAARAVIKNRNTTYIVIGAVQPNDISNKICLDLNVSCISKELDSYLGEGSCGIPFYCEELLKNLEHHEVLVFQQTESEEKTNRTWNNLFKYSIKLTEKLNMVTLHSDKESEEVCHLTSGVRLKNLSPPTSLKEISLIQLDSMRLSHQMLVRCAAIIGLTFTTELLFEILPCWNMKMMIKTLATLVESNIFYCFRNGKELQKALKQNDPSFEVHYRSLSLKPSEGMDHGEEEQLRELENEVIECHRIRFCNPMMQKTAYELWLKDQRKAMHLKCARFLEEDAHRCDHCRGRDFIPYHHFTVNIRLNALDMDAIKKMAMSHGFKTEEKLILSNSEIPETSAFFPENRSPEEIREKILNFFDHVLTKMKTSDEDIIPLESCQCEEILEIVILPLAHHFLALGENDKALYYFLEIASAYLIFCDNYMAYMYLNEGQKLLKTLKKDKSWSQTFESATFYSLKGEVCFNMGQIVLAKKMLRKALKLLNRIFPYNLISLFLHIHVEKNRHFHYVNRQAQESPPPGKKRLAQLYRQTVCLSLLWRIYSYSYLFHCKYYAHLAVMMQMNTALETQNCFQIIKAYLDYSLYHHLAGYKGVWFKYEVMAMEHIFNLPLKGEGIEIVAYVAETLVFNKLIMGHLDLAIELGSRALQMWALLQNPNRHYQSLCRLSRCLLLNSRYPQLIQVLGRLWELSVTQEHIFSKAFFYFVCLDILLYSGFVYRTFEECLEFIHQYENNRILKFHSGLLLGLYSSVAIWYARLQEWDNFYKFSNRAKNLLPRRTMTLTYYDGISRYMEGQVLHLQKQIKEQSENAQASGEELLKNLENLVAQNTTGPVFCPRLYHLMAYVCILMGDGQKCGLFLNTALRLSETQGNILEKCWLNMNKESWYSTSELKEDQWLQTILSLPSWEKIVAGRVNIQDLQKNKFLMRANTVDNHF

Biological target: purified recombinant human sAC protein (Homo sapiens, UniProt Q96PN6)
Assay: biochemical
Format: biochemical
Details: 1 mM ATP, 2 mM CaCl2, 4 mM MgCl2, 40 mM NaHCO3
Experimental: Assays for sAC activity using purified protein were performed in 100 μl reactions containing 4 mM MgCl2, 2 mM CaCl2, 1 mM ATP, 40 mM NaHCO3, 50 mM Tris pH 7.5, and 3 mM DTT. Each reaction contained ˜1,000,000 counts of α-^32P labeled ATP.
All in vitro adenylyl cyclase activity assays were performed via the “two-column” method measuring the conversion of [α-^32P] ATP into [^32P] cAMP, as previously described [References 81, 82]. Briefly, human sACt protein [Reference 21] was incubated in buffer containing 50 mM Tris-HCl, pH 7.5, 4 mM MgCl2, 2 mM CaCl2, 1 mM ATP, 3 mM DTT, 40 mM NaHCO3 in the presence of the indicated concentrations of different sAC inhibitors or vehicle (DMSO).

Row | Compound | IC50 [µM]
1 | Cc1ccc(-c2cn(C)nc2-c2cc(Cl)nc(N)n2)s1 [Example 3] | 1 to 10
2 | Cn1cc(Cc2ccccc2)c(-c2cc(Cl)nc(N)n2)n1 [Example 4] | 0.55
3 | CCn1cc(Cc2cccs2)c(-c2cc(Cl)nc(N)n2)n1 [Example 5] | 0.18
4 | Cn1cc(Cc2sccc2-c2ccccc2)c(-c2cc(Cl)nc(N)n2)n1 [Example 6] | 0.22
5 | Cn1cc(Cc2cccc(Oc3ccccc3)c2)c(-c2cc(Cl)nc(N)n2)n1 [Example 7] | 0.22
6 | Cn1cc(Cc2cccc(-c3ccccc3)c2)c(-c2cc(Cl)nc(N)n2)n1 [Example 8] | 0.14
7 | Cn1cc(Cc2ccccc2Oc2ccccc2)c(-c2cc(Cl)nc(N)n2)n1 [Example 9] | 0.1
8 | Cn1cc(Cc2nccs2)c(-c2cc(Cl)nc(N)n2)n1 [Example 21] | 0.26
9 | Nc1nc(Cl)cc(-c2nn(C(F)(F)F)cc2Cc2ccccc2)n1 [Example 22] | 0.16
10 | Cc1c(Cn2ccnn2)c(-c2cc(Cl)nc(N)n2)nn1C [Example 23] | 0.7
11 | COc1cccc(Cc2cn(C)nc2-c2cc(Cl)nc(N)n2)c1 [Example 25] | 0.289
12 | Cn1cc(Cc2cscn2)c(-c2cc(Cl)nc(N)n2)n1 [Example 26] | ~1
13 | Cc1c(Cn2ccccc2=O)c(-c2cc(Cl)nc(N)n2)nn1C [Example 29] | ~1
14 | Cn1cc(Cc2cccc3ccccc23)c(-c2cc(Cl)nc(N)n2)n1 [Example 30] | 0.05
15 | Cn1cc(Cc2cccc3cnn(C)c23)c(-c2cc(Cl)nc(N)n2)n1 [Example 31] | 0.25
16 | Cn1cc(Cc2cccc3c2OCCO3)c(-c2cc(Cl)nc(N)n2)n1 [Example 32] | 0.015
17 | Cn1nc(-c2cc(Cl)nc(N)n2)c(Cc2ccccc2)c1C(=O)OCc1ccccc1 [Example 35, benzyl 5-(2-amino-6-chloro-pyrimidin-4-yl)-4-benzyl-2-methyl-pyrazole-3-carboxylate] | 0.000826
18 | CN1CCN(C(=O)c2c(Cc3ccccc3)c(-c3cc(Cl)nc(N)n3)nn2C)CC1 [Example 36] | ~1
19 | Cn1ccnc1COC(=O)c1c(Cc2ccccc2)c(-c2cc(Cl)nc(N)n2)nn1C [Example 37] | 0.006
20 | Cn1nc(-c2cc(Cl)nc(N)n2)c(Cc2ccccc2)c1C(=O)OCCN1CCOCC1 [Example 38] | 0.0047
21 | Cn1nc(-c2cc(Cl)nc(N)n2)c(Cc2ccccc2)c1C(=O)OCC1COC1 [Example 39] | 0.0038
22 | Cn1nc(-c2cc(Cl)nc(N)n2)c(Cc2ccccc2)c1C(=O)Oc1ccc(CO)cc1 [Example 40] | 0.0015
23 | CN(C)CCOC(=O)c1c(Cc2ccccc2)c(-c2cc(Cl)nc(N)n2)nn1C [Example 41] | 0.008
24 | Cn1nc(-c2cc(Cl)nc(N)n2)c(Cc2ccccc2)c1C(=O)OCc1ccc(CN)cc1 [Example 42] | 0.0035
25 | Cc1c(CC2CCC2)c(-c2cc(Cl)nc(N)n2)nn1C [Example 43] | 0.1
26 | Nc1nc(Cl)cc(-c2n[nH]cc2Cc2ccccc2)n1 [Example 44, 4-(4-benzyl-1H-pyrazol-3-yl)-6-chloro-pyrimidin-2-amine] | ~5
27 | COC(=O)c1ccccc1Cc1cn(C)nc1-c1cc(Cl)nc(N)n1 [Example 46] | 0.022

Row | Compound | IC50 [µM]
28 | COC(=O)c1cccc(Cc2cn(C)nc2-c2cc(Cl)nc(N)n2)c1 [Example 47] | 0.07
29 | Cn1cc(Cc2ccccc2C(=O)OCc2ccccc2)c(-c2cc(Cl)nc(N)n2)n1 [Example 48] | 0.01
30 | Cn1cc(Cc2ccccc2C(=O)NCc2ccccc2)c(-c2cc(Cl)nc(N)n2)n1 [Example 49, 2-[[3-(2-amino-6-chloro-pyrimidin-4-yl)-1-methyl-pyrazol-4-yl]methyl]-N-benzyl-benzamide] | 0.23
31 | CC(=O)OCc1c(Cc2ccccc2)c(-c2cc(Cl)nc(N)n2)nn1C [Example 50, [5-(2-amino-6-chloro-pyrimidin-4-yl)-4-benzyl-2-methyl-pyrazol-3-yl]methyl acetate] | 0.31
32 | Cn1nc(-c2cc(Cl)nc(N)n2)c(Cc2ccccc2)c1COC(=O)c1ccccc1 [Example 51] | 0.032
33 | CN1CCN(CCOC(=O)c2ccccc2Cc2cn(C)nc2-c2cc(Cl)nc(N)n2)CC1 [Example 53] | 0.122
34 | CN(C)CCCOC(=O)c1ccccc1Cc1cn(C)nc1-c1cc(Cl)nc(N)n1 [Example 54] | 0.093
35 | Cn1cc(Cc2ccccc2C(=O)OCc2ccc(CN)cc2)c(-c2cc(Cl)nc(N)n2)n1 [Example 55] | 0.011
36 | CN1CCC(OC(=O)c2ccccc2Cc2cn(C)nc2-c2cc(Cl)nc(N)n2)CC1 [Example 57] | 0.08
37 | CN1CCC(OC(=O)c2cccc(Cc3cn(C)nc3-c3cc(Cl)nc(N)n3)c2)CC1 [Example 58] | 0.33
38 | Cn1cc(Cc2cccc(C(=O)OCc3nccn3C)c2)c(-c2cc(Cl)nc(N)n2)n1 [Example 59] | 0.135
39 | CN1CCC(COC(=O)c2cccc(Cc3cn(C)nc3-c3cc(Cl)nc(N)n3)c2)CC1 [Example 60] | 0.16
40 | CN1CCCC1COC(=O)c1cccc(Cc2cn(C)nc2-c2cc(Cl)nc(N)n2)c1 (stereo not drawn) [Example 61] | 0.39
41 | CN1CCC(COC(=O)c2ccccc2Cc2cn(C)nc2-c2cc(Cl)nc(N)n2)C1 (stereo not drawn) [Example 62] | 0.052
42 | Cn1cc(Cc2cccc(C(=O)OCc3ccnc(N)c3)c2)c(-c2cc(Cl)nc(N)n2)n1 [Example 63] | 0.000455
43 | COCCNC(=O)c1cccc(Cc2cn(C)nc2-c2cc(Cl)nc(N)n2)c1 [Example 64] | ~1
44 | CN1CCC(COC(=O)c2c(Cc3ccccc3)c(-c3cc(Cl)nc(N)n3)nn2C)CC1 [Example 65] | 0.01
45 | CC(=O)Oc1ccc(COC(=O)c2c(Cc3ccccc3)c(-c3cc(Cl)nc(N)n3)nn2C)cc1 [Example 66] | 0.026
46 | Cn1nc(-c2cc(Cl)nc(N)n2)c(Cc2ccccc2)c1C(=O)OCC(O)CO (stereo not drawn) [Example 67] | 0.02
47 | Cn1nc(-c2cc(Cl)nc(N)n2)c(Cc2ccccc2)c1C(=O)OCc1ccnc(N)c1 [Example 68] | 0.00046
48 | Cn1cc(Cc2ccccc2OCCN2CCOCC2)c(-c2cc(Cl)nc(N)n2)n1 [Example 69, 4-chloro-6-[1-methyl-4-[[2-(2-morpholinoethoxy)phenyl]methyl]pyrazol-3-yl]pyrimidin-2-amine] | 0.0042
49 | Cn1nc(-c2cc(Cl)nc(N)n2)c(Cc2ccccc2)c1COCc1ccccc1 [Example 70] | 0.026
50 | Cn1cc(Cc2cccc(Oc3ccccc3)c2)c(-c2cc(Br)nc(N)n2)n1 [Example 71, 4-bromo-6-[1-methyl-4-[(3-phenoxyphenyl)methyl]pyrazol-3-yl]pyrimidin-2-amine] | ~1
51 | Cn1cc(Cc2cccc(Oc3ccccc3)c2)c(-c2cc(F)nc(N)n2)n1 [Example 72, fluoro-6-[1-methyl-4-[(3-phenoxyphenyl)methyl]pyrazol-3-yl]pyrimidin-2-amine] | ~1
52 | Cn1nc(-c2cc(Cl)nc(N)n2)c(Cc2ccccc2)c1C(=O)OCc1ccc(N)nc1 [Example 73] | ~1
53 | Cc1c(Cc2ncccn2)c(-c2cc(Cl)nc(N)n2)nn1C [Example 74] | ~1
54 | CN1CCN(CCOC(=O)c2ccccc2Cc2cn(C(F)F)nc2-c2cc(Cl)nc(N)n2)CC1 [Example 75, 2-(4-methylpiperazin-1-yl)ethyl 2-[[3-(2-amino-6-chloro-pyrimidin-4-yl)-1-(difluoromethyl)pyrazol-4-yl]methyl]benzoate] | 0.023
